Assay results from PMC10440361 (Current Research in Pharmacology and Drug Discovery, 2023).

Columns and labels:
[1] = test system: adult male Sprague Dawley rats; assay: Safety/tolerability after SC administration in conscious rats; assay type: in vivo
[2] = test system: adult male cynomolgus monkeys; assay: Tolerability in monkeys after single-dose bolus; assay type: in vivo; conditions: non-human primates (cynomolgus monkeys), telemetry

Substance: [Phe2,Dab(Lys(Lys(Ac)-[Ala6,Glu9]))8]VT [OCE-205]
- deaths ([1]; SC 0.1 to 20 mg/kg): no deaths occurred
- local reaction at the injection site (redness, skin irritation, erythema, or scab), animals affected ([1]; SC, dose levels of 4 and 20 mg/kg, six males): three of the six
- bodyweight gain ([1]; four SC treatments with different dose levels up to 20 mg/kg): did not influence bodyweight gain
- effect on body temperature [2]: no apparent OCE-205–related effect
